Source: US20210341482A1, “CANCER BIOMARKERS” (NOTTINGHAM UNIVERSITY HOSPITALS NHS TRUST, priority 2018, published 2021)

Columns and labels:
[1] = test system: ER+ locally advanced breast cancer; test: pCR after pre-operative anthracycline based combination chemotherapy, multicentre transcript cohort stratified by SPAG5 mRNA; assay type: in vivo, human; details: Multicentre neoadjuvant chemotherapy (MC-NACT) cohort (n = 1073); yes vs no
Description: C) Assessment of Complete Pathological Response (pCR; Complete Disappearance of Tumour Cells in Breast and Lymph Node) after Receiving Pre-Operative Anthracycline Based Combination Chemotherapy Therapy for ER+ Locally Advanced Breast Cancer Patients (i.e. Examples 39 to 44)
The association between SPAG5 mRNA expression and pCR was evaluated in 2208 patients with locally advanced BC who received anthracycline based combination chemotherapy (E, AC, or FEC) with (+) or without (−) taxane (T). SPAG5 mRNA expression data has been retrieved from 11 publically available gene expression microarray datasets at the National Centre for Biotechnology Information Gene Expression Omnibus using the following access numbers.
The patients had received the following pre-operative chemotherapy.
SPAG5 gene expression data of each database were converted to a common scale (median equal to 0 and standard deviation equal to 1) in order to merge all of the studies data that used the same platform and create combined cohorts. To convert to a common scale each sample in the data was standardised to a mean of 0 and standard deviation of 1. […] Databases using same platform have been merged and the median expression was calculated. The median expression of SPAG5 transcript for each platform has been calculated and values equal to or higher than the median coded as +1 (overexpression). […]

[2] = test system: locally advanced breast cancer; test: 5-year relapse/disease free survival after neoadjuvant chemotherapy by adjuvant HER2 target therapy, NUH cohort; assay type: in vivo, human; details: pre-NACT HER2+ cases that remained HER2+ post NACT (64/73)

Question: Which “OR for pCR, multivariable logistic regression” value [1] does the source give for “Trastuzumab NACT: Trastuzumab given as neoadjuvant therapy, covariate of the regression” here?
Answer: 0.66

Question: “HER2 Target therapy: adjuvant HER2 target therapy for one year; Trastuzumab according to the cohort method” was tested. Which “5-year DFS” value [2] did it give?
Answer: 75%
